These results are taken from ChEMBL document CHEMBL5154811, “Discovery of SPH5030, a Selective, Potent, and Irreversible Tyrosine Kinase Inhibitor for HER2-Amplified and HER2-Mutant Cancer Treatment” (J Med Chem, 2022).

Protein sequences, listed by entry. Tags and fused reporters are not part of them.
UniProt P00533, whole entry: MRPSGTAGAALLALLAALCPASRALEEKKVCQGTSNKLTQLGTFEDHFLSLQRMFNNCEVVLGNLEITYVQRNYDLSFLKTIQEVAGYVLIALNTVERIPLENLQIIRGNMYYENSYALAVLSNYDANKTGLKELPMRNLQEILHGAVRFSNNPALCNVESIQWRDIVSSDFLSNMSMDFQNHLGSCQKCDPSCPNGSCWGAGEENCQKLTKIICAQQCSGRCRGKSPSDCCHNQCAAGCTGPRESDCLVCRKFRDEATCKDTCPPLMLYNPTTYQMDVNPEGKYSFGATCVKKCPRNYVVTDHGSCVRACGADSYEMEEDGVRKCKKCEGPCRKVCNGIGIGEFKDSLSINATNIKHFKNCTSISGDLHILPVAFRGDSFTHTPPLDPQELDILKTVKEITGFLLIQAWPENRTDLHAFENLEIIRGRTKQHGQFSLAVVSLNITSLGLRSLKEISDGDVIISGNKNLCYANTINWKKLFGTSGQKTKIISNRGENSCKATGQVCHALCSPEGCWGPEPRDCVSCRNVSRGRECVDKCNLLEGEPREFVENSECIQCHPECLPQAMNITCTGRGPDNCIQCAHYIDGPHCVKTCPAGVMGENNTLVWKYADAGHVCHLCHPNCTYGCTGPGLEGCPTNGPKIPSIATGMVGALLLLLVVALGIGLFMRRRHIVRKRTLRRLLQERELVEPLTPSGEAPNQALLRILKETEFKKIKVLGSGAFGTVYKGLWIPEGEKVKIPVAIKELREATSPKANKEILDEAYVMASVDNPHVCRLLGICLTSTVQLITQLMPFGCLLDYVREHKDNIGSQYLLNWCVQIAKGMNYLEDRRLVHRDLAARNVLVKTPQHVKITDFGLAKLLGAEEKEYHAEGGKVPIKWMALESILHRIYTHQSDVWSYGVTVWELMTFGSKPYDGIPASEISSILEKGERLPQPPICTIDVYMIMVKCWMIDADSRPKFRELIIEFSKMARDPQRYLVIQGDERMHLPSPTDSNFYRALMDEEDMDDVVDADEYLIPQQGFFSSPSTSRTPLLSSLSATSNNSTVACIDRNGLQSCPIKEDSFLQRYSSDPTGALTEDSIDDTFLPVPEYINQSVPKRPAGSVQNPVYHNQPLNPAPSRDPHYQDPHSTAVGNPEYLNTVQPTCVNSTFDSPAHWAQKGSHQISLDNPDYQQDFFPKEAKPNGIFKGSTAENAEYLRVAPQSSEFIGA

By half-life is commonly meant how long it takes for the measured level to halve.

The structures appear in SMILES notation.

For one data set, the system named is NCI-N87. The data set can be described thus: Antiproliferative activity against human NCI-N87 cells assessed as inhibition of cell growth incubated for 72 hrs by Celltiter-Glo assay. It counts as functional, cell-based. As to conditions: NCI-N87, 72 h. Background: In ATP-based viability assays light output follows the ATP content of the culture.
Data set [1] is described as follows: Metabolic stability in human liver microsomes assessed as intrinsic clearance at 1 uM preincubated for 5 mins followed by NADPH addition by LC-MS/MS analysis. The note with it: read-out: CLH. In kind it is ADME, Microsome. On the technique in general: Liver microsomes are vesicles of endoplasmic reticulum, rich in cytochrome P450 enzymes.
A short description of data set [2]: Metabolic stability in human liver microsomes assessed as half life at 1 uM preincubated for 5 mins followed by NADPH addition by LC-MS/MS analysis. In kind it is ADME, Microsome.
Data set [3] concerns the target T1, Epidermal growth factor receptor (Homo sapiens, UniProt P00533). The data set can be described thus: Inhibition of EGFR (unknown origin).
Data set [4] addresses T1, Epidermal growth factor receptor. The data set can be described thus: Inhibition of wild type human N-terminal GST tagged EGFR (669 to 1210 residues) expressed in Sf21 insect cells incubated for 30 mins in presence of ATP by HTRF analysis.

As for `CCOc1cc2ncnc(Nc3ccc(Oc4cc5nncn5cn4)c(C)c3)c2cc1NC(=O)/C(F)=C\[C@H]1CCCN1C`, the IC50 in the data set with NCI-N87 was found to be 1.08 nM.
Turning to `CCOc1cc2ncnc(Nc3ccc(Oc4cc5nncn5cn4)c(C)c3)c2cc1NC(=O)/C(F)=C\[C@@H]1CCCN1C`, the microsomal CLint at 1 µM in data set [1] was determined as 11.8 µL/min/mg. For the same compound, the half-life at 1 µM in data set [2] turned out to be 1.96 h.
On to `CCOc1cc2ncc(C#N)c(Nc3ccc(OCc4ccccn4)c(Cl)c3)c2cc1NC(=O)/C=C/[C@H]1CCCN1C` [PYROTINIB], for which the IC50 in data set [3] amounted to 0.48 nmol; in data set [4] it was 0.98 nM.
